Results from publication PMC12703749, “H2O2–Responsive Anticancer Prodrug: Synthesis, Precision Deuteration in Search of In Vivo Metabolites, and Activation Pathway” (Journal of Medicinal Chemistry, 2025).

Experiments:
MDA-MB-468 cells = assay: Cell viability assay (CellTiter-Glo), MDA-MB-468; details: MDA-MB-468 (cancer), 48 h, 37 °C, n = 3
[1] = system: MDA-MB-468 xenograft tumors; assay: In vivo efficacy in MDA-MB-468 xenograft model; details: 5 mg/kg IP, 8 weeks; IR = [1 – (mean treated/mean control tumor volume)] × 100

Question: With `Cc1cc(N(CCCl)CCCl)ccc1B(O)O` as the molecule, how does the IC50 (MDA-MB-468 cells) read?
Answer: Its IC50 is 3.4 µM.

Question: What about the “tumor growth inhibition rate (IR)” value [1] of the same molecule?
Answer: The value was 91%.
